Test system: mice subjected to chronic constriction injury (CCI) of the sciatic nerve
Experiment: Chronic constriction injury (CCI) of the sciatic nerve

| SMILES | chronic pain manifestations after CCI (spontaneous pain, hypersensitivity to heat and mechanical stimuli, long-term memory) (ARN19702 30 mg-kg^−1 IP once daily for 3 days starting 24 h after surgery, POD 7-14 and POD 26) | persistent hypersensitivity elicited by CCI (post-injury intrathecal infusion at post-operative day 2 and 4, assessed post-operative day 14) | pain chronification (hyperalgesia) (GW7647 10 mg-kg^−1 IP, post-procedural day 2-4, wild-type mice subjected to CCI) |
| --- | --- | --- | --- |
| CCS(=O)(=O)c1ccccc1C(=O)N1CCN(c2nc3ccc(F)cc3s2)C[C@@H]1C [ARN19702] | prevented the appearance | stopped | – |
| CC(C)(Sc1ccc(CCN(CCCCC2CCCCC2)C(=O)NC2CCCCC2)cc1)C(=O)O [GW7647, reference compound] | – | – | stopped |

Reference: patent publication US20240252486A1, “ALGOSTATIC AGENTS FOR PREVENTING TRANSITION FROM ACUTE TO CHRONIC PAIN” (The Regents of the University of California, priority 2021, published 2024)
